Experimental data reported in patent publication US8734776B2 (ZymoGenetics, Inc., priority 2003, dated 2014).

Test system: EMCV
Test: EMCV antiviral dye-uptake assay in HepG2 cells
Format: cell-based, human
Details: dye-uptake OD570

“IFN-β: interferon-β [reference compound]” gave an EC50 antiviral activity of 0.46 ng/mL.
